Earlier results on one molecule are cited in patent US8835436B2 (priority 2009, dated 2014).

Amino acid sequences for entries named in this document (tags omitted). A change or cut given only in a name is not applied to a line headed by its entry.
UniProt P28335: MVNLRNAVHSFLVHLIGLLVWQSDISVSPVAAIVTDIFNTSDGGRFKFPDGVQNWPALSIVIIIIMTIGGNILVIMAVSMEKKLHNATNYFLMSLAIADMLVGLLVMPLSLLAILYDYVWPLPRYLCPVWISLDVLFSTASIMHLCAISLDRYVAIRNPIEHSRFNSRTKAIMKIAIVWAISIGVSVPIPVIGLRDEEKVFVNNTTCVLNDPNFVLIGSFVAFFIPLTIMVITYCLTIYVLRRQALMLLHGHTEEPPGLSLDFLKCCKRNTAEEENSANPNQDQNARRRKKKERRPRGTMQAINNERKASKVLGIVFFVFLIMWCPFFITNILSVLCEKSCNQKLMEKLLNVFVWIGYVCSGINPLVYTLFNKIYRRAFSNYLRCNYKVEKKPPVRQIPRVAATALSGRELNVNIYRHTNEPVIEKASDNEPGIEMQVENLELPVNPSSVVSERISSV

pIC50: −log10 of the molar value.

The data set has as its target human recombinant 5-HT2C receptor (Homo sapiens (Human), UniProt P28335). To be noted: read-out: Binding affinity to serotonin receptor 5-HT2C: IC50; cited from earlier work.

On to `CCc1nn(CCCN2CCN(c3cccc(Cl)c3)CC2)c(=O)n1CCOc1ccccc1` [Nefazodone, nefazodone], for which the pIC50 was 6.80.
